## Measured affinities in a library of Ab-14 heavy chain variants

Reference: Li et al. 2023, doi:10.1038/s41467-023-39022-2. File: FLAb, binding data.

Target peptide (SARS-CoV-2 spike, HR2 region): PDVDLGDISGINAS

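The starting antibody came from a phage panning campaign against this peptide. The variants were designed computationally from a first round of random CDR variants and then made and measured. Group labels follow the data file (Ctrl: baseline library sampled from a position-specific scoring matrix, with some repeated check sequences; Rand: our label for a block that the file lists under HC and that is probably the random mutants of the ten best first-round binders; En: ensemble of fine-tuned language models; HC: hill climbing; Gen: genetic algorithm; Gibbs: Gibbs sampling; a sequence that several methods proposed may carry one label only). In AlphaSeq, yeast of one mating type display the scFv and yeast of the other type display the target. The frequency of each diploid, read from paired DNA barcodes, reflects how well the two displayed proteins bind. Each replicate has its own calibration line, from reference interactions of the BCL2 family. Each pool was mated in six replicate cultures.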

Parent: Ab-14, a human scFv built as VH, a (GGGGS)3 linker, VL. Only the CDRs of the heavy chain vary.
VH: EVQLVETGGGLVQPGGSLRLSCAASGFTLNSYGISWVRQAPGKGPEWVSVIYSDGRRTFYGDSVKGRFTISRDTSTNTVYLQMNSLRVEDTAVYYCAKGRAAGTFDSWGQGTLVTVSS
VL: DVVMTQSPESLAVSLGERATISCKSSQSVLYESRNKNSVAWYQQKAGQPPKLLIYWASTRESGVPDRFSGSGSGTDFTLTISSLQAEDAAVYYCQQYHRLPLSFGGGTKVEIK

Variants are written as CDR1, CDR2 and CDR3 of the heavy chain (limits as in the source). Parent: GFTLNSYGIS, VIYSDGRRTFYGDSVK, GRAAGTFDS.
This list holds designs with more than six substitutions.
Values are log10 of the apparent Kd in nM; lower means stronger binding.
Averages over replicates are reported, and they cover detected replicates only.
An entry "ND" has no value in the source: the pair was not observed among the diploids in that replicate. This suggests poor binding but is not conclusive.
The authors averaged sequences with at least three values out of six and counted those with two or fewer as poor binders.
Three control strains display no target. For all heavy chain designs, 1% of the pairings with them gave a signal, with a median of 2.08 and one signal in twenty below 0.84, so weak values seen in few replicates may be background. For each scFv, signals with the empty controls are counted beside the result.
A sequence measured in both rounds can read differently, since the two assays cover different ranges.
Of ten entries with the parent sequence, four were seen in most replicates (averages 0.34 to 2.37), three in one and three in none, so single entries are noisy.

With GFDLNEYGIS | VIYADGVRTYYADSVK | GNTAGTFDV [En_Gen] the result was -0.62, -0.24, -0.03, -0.71, -0.86, -0.76 (mean -0.53; controls 0 of 18). With GFTNNEYGIS | VIYSDGRRQFYGDSVK | GHAYATFTS [Ctrl] the result was ND, ND, ND, ND, ND, ND (controls 0 of 18). For GFDLNEYGIS | VIYADGMRTQYADSVK | GNVAGTFDI [En_Gen], the assay gave -0.45, ND, 0.22, -0.48, 0.83, 0.21 (mean 0.06; controls 0 of 18). For GFNLDEYGVS | VIYADGKRTQYTNNFK | GENAGFFML [En_Gibbs], the assay gave ND, ND, ND, ND, ND, ND (controls 0 of 18). The variant GFDLNEYGIS | VIYADGRRTFYSDSVK | GTIAGTFIQ [En_HC] showed 0.24, -0.07, 0.39, 0.14, 0.14, 0.07 (mean 0.15; controls 0 of 18). With GFNLNEYGIS | VIYADGHRRYYVDNVK | GHLGGTFSM [En_Gibbs] the result was ND, 0.45, ND, 0.73, 1.26, ND (mean 0.81; controls 0 of 18). The variant GMNIDEYGIS | VIYADGLRYHYANSVK | GEMAGTFMV [En_Gibbs] gave ND, ND, ND, ND, ND, ND (controls 0 of 18).

For GKSLEEYGIS | VIYADGKRNMYANDVK | GHVGYIFMM [En_Gibbs], the assay gave ND, ND, ND, ND, ND, ND (controls 0 of 18). The variant GFDLNEYGIS | VIYADGMRTAYVDNVK | GEVAGTFDV [En_Gen] gave 0.31, -0.34, -0.83, -0.03, -0.13, -0.10 (mean -0.19; controls 0 of 18). For GFDLNEYGIS | VIYADGRRTFYADSVK | GEGAGTFDI [En_HC], the assay gave 1.01, 0.86, 1.48, 0.36, 2.27, 1.57 (mean 1.26; controls 0 of 18). For GFDLEKYGIS | VIYADGKRVAYLDAVK | GGTGGMFMS [En_Gibbs], the assay gave 1.62, 0.92, 0.96, 0.88, 0.91, 1.02 (mean 1.05; controls 0 of 18). With GFDLDEYGIS | VIYADGRRTFYIDSVK | GNVAGTFDV [En_HC] the result was -0.91, -0.65, -0.70, -0.99, -1.01, -0.81 (mean -0.85; controls 0 of 18). With GFDLSEYGIS | VIYADGRRFSYTDAVK | GQVEGMLDV [En_Gibbs] the result was ND, ND, ND, ND, 3.00, ND (controls 1 of 18). With GFDLNEYGIS | VIYADGKRTAYADSVK | GNTAGTFDV [En_Gen] the result was -0.17, -0.17, -0.05, -0.83, -0.42, -0.38 (mean -0.34; controls 0 of 18).

For GFDLNEYGIS | VIYADGMRTAYANDVK | GNQAGTFDV [En_Gen], the assay gave -0.51, -0.08, -0.38, -0.31, -0.65, -0.50 (mean -0.41; controls 0 of 18). The variant GFDLDEYGIS | VIYADGKRTAYSDSVK | GQVAGTFDV [En_Gen] showed -0.28, 0.08, -0.34, -0.44, -0.43, -0.10 (mean -0.25; controls 0 of 18). The variant GFDLDEYGIS | VIYADGMRTAYSDSVK | GNTAGTFDV [En_Gen] gave -0.06, -0.56, -0.37, -0.43, -0.69, -0.14 (mean -0.38; controls 0 of 18). With GFDLDEYGIS | VIYADGMRTFYADSVK | GNIAGTFDQ [En_HC] the result was -0.25, -0.52, -0.71, -0.28, -0.19, -0.38 (mean -0.39; controls 0 of 18). With GQDINEFGIS | VIYADGIRNQYADSVK | GQNGFFFDI [En_Gibbs] the result was ND, ND, ND, ND, ND, ND (controls 0 of 18). For GFDLNEYGIS | VIYADGVRTAYEEKVK | GVITNLIWL [En_Gibbs], the assay gave ND, ND, ND, ND, ND, ND (controls 0 of 18). The variant GFDLDEYGIS | VIYADGRRTAYSDSVK | GQVAGTFDV [En_Gen] showed -0.80, -0.80, -0.95, -0.90, -0.82, -0.72 (mean -0.83; controls 1 of 18).

With GFDLNEYGIS | VIYADGMRTAYSDSVK | GEEAGTFDV [En_Gen] the result was -0.11, -1.03, -1.20, -1.01, -0.89, -0.50 (mean -0.79; controls 0 of 18). The variant GFDLNEYGIS | VIYADGRRTAYQDSVK | GNVAGTFDV [En_Gen] gave -0.51, -0.61, -0.69, -0.61, -0.95, -0.33 (mean -0.62; controls 1 of 18). With GDSLNEYGIS | VIYADGVRARYADPVK | GENDGLFDQ [En_Gibbs] the result was ND, ND, 1.82, ND, 2.22, ND (mean 2.02; controls 0 of 18). The variant GFDLNNYGIS | VIYADGLRVEYENKVK | GDVAGTFDS [En_Gibbs] showed 0.38, 0.16, 0.21, -0.16, 0.16, 0.05 (mean 0.13; controls 0 of 18). The variant GYDLNEYGIS | VIYADGRRAATINQVK | GSNSDTFSL [En_Gibbs] showed ND, ND, ND, ND, ND, ND (controls 0 of 18). For GFDLNEYGIS | VIYADGRRTFYADSVK | GNTAGTFTS [En_HC], the assay gave -0.72, -0.57, -0.02, -0.59, 0.04, -0.34 (mean -0.37; controls 0 of 18). The variant GFDLNEYGIS | VIYADGMRTAYSDSVK | GENAGTFDI [En_Gen] gave -0.29, -0.16, -0.50, -0.51, -0.36, -0.27 (mean -0.35; controls 1 of 18).

The variant GKLLDEYGIS | VIYADGKRMVYANSVK | GNLTDTLLV [En_Gibbs] gave ND, ND, ND, ND, ND, ND (controls 0 of 18). The variant GFDLNEYGIS | VIYADGRRTFYTDNVK | GQNAGTFDQ [En_HC] gave -0.72, -0.78, -0.34, -1.07, -0.94, -0.40 (mean -0.71; controls 0 of 18). With GFDLNEYGIS | VIYADGKRTAYSDSVK | GETAGTFDV [En_Gen] the result was -0.24, -0.15, -0.22, -0.17, -0.29, -0.06 (mean -0.19; controls 1 of 18). With GFDLNEYGIS | VIYADGMRTAYSDSVK | GNNAGTFDT [En_Gen] the result was -0.07, -0.06, 0.00, 0.06, 0.12, 0.08 (mean 0.02; controls 0 of 18). With GFSLDEFGIS | VIYADGMRSFYTDNVK | GINGNALVI [En_Gibbs] the result was ND, ND, ND, ND, ND, ND (controls 0 of 18). The variant GFDLDEYGIS | VIYADGQRTAYSDSVK | GNNAGTFDI [En_Gen] gave -0.13, 0.10, -0.30, -0.40, -0.32, -0.10 (mean -0.19; controls 1 of 18). The variant GFDLNEYGIS | VIYADGIRTAYADSVK | GNNAGTFDI [En_Gen] gave -0.85, -1.18, -0.90, -1.36, -1.21, -0.85 (mean -1.06; controls 0 of 18).

With GFTLNQYGIS | VIYEHGTRTFYSDSVK | GRIAGFFDS [Rand] the result was ND, ND, ND, ND, ND, ND (controls 1 of 18). The variant GFDLNEYGIS | VIYADGMRTFYADSVK | GEAAGSFDQ [En_HC] gave ND, -0.64, ND, -0.63, ND, -0.63 (mean -0.63; controls 0 of 18). For GFDLNEYGIS | VIYADGMRTAYQDSVK | GNNAGTFDI [En_Gen], the assay gave -0.05, -0.25, -0.36, -0.17, -0.08, 0.12 (mean -0.13; controls 0 of 18). With GFHLDEYGIS | VIYADGMRSQVADNVK | GGIVAYFTQ [En_Gibbs] the result was ND, ND, ND, ND, ND, ND (controls 1 of 18). For GFDINEYGIS | VIYADGRRTQYADSVK | GEAAGTFDI [En_HC], the assay gave 2.14, 1.99, 1.67, 2.57, 1.40, 2.73 (mean 2.08; controls 0 of 18). The variant GFDLNEYGIS | VIYADGRRTFYADSVK | GSNAGTFLV [En_HC] showed ND, -0.30, 0.66, ND, 1.32, 0.70 (mean 0.59; controls 0 of 18). With GFDLDEYGIS | VIYADGRRTFYTDSVK | GNVAGTFDS [En_HC] the result was -0.11, -0.44, -0.64, -0.21, -0.74, -0.43 (mean -0.43; controls 0 of 18).

From the list, the first 3 with no signal in any replicate:

| CDR-H1 | CDR-H2 | CDR-H3 | group | log10 Kd, replicates | log10 Kd (nM), mean | empty controls |
|---|---|---|---|---|---|---|
| GFTNNEYGIS | VIYSDGRRQFYGDSVK | GHAYATFTS | Ctrl | ND, ND, ND, ND, ND, ND | ND | 0 of 18 |
| GFNLDEYGVS | VIYADGKRTQYTNNFK | GENAGFFML | En_Gibbs | ND, ND, ND, ND, ND, ND | ND | 0 of 18 |
| GMNIDEYGIS | VIYADGLRYHYANSVK | GEMAGTFMV | En_Gibbs | ND, ND, ND, ND, ND, ND | ND | 0 of 18 |